According to ChEMBL document CHEMBL4145659, “Discovery of a Series of Indole-2 Carboxamides as Selective Secreted Phospholipase A2 Type X (sPLA2-X) Inhibitors” (ACS Med Chem Lett, 2018):

Key:
[1] = molecular target: T1, Phospholipase A2, membrane associated (Homo sapiens, UniProt P14555); experiment: Inhibition of recombinant human sPLA2-2A expressed in Escherichia coli BL21(DE3) using 1-palmitoyl-2-oleoyl-sn-glycero-3-phosphocholine as substrate pretreated for 20 mins followed by substrate addition and measured after 60 mins
T1 sequence (P14555 whole entry): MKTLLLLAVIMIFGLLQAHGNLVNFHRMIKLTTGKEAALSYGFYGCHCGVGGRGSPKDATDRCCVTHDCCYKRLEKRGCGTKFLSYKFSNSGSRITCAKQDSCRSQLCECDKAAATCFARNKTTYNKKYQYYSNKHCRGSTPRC

[2] = molecular target: T2, Group 10 secretory phospholipase A2 (Homo sapiens, UniProt O15496); experiment: Inhibition of recombinant human sPLA2-10 expressed in Escherichia coli BL21(DE3) using HDL as substrate pretreated for 20 mins followed by substrate addition and measured after 60 mins
T2 sequence (O15496 whole entry): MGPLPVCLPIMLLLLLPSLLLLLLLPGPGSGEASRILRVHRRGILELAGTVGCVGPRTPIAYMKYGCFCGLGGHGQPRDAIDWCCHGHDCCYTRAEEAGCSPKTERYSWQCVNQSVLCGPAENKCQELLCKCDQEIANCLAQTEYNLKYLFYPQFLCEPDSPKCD

SMILES: CCc1c(C(=O)C(N)=O)c2c(OCC(=O)O)cccc2n1Cc1ccccc1 [VARESPLADIB]
- IC50 [1]: 12 nM
- IC50 [2]: 150 nM
